The values below come from patent US20040053309A1, “Proteins, genes and their use for diagnosis and treatment of kidney response” (priority 2000, published 2004).

The series relates to rats. The experiment in a line: Urine biochemistry parameters in Gentamicin-treated rats. In kind it is in vivo, rat. Conditions: 60 mg/kg/day. The method, then: Gentamicin, a known kidney toxin, was used to treat rats at a range of doses known to produce varying degrees of bistopathologically evident kidney response. Groups of rats were treated with Gentamicin at the following dose levels: 0.1, 1.0, 10, 40 or 60 mg/kg/day. The rat groups included 10 male rats per treated group, and 20 male rats in the untreated (control) group. Blood samples from rats treated at 40 mg/kg/day after 8 days were taken for proteome analysis, and kidney cortex tissue samples from rats treated at 0.1, 1.0, 10, and 40 mg/kg/day after 8 and 22 days for each group were taken for proteome analysis. Kidney cortex tissue samples were also prepared for histologic examination according to standard tissue preparation protocols.
At 60 mg/kg/day there were changes in urine biochemistry parameters (raised NAG (N-acetyl-beta-D-glucosaminidase), GGT (gamma-glutamyl-transpeptidase) and urine volume, depressed specific gravity), consistent with kidney damage.

In the case of Gentamicin, the urine volume entry was “raised”.
